# Assay results from patent US20150225704A1.
# The chains behind the UniProt entries cited, without tags or fusion partners. Where a name states a change or a piece, a line headed by the entry shows the natural chain unless it says otherwise.
# UniProt Q8IUH5: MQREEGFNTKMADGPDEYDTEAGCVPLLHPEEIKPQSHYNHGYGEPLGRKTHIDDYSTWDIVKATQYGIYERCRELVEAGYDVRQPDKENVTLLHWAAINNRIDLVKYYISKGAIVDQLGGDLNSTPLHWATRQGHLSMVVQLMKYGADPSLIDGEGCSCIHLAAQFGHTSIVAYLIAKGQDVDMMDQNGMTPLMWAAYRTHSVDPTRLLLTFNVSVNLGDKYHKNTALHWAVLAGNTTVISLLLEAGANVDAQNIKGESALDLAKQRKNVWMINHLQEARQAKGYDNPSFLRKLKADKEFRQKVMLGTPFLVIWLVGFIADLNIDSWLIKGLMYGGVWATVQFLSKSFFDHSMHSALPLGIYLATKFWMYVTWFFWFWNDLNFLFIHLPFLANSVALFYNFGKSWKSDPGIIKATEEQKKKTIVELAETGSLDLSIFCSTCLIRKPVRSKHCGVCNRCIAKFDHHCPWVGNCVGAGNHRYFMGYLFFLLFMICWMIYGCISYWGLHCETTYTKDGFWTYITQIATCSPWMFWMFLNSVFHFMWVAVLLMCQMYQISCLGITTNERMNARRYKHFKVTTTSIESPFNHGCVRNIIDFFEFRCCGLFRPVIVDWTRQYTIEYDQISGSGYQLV
# Key:
# [1] = target: myc-tagged full-length palmitoyl acyl transferase zinc-finger DHHC type containing 17 (zD17) (UniProt Q8IUH5); assay: co-immunoprecipitation of zD17 and JNK3 in HEK293 cells with overexpressed PSD-95 (competitor of JNK3)
# [2] = target: myc-tagged full-length palmitoyl acyl transferase zinc-finger DHHC type containing 17 (zD17) (UniProt Q8IUH5); assay: cell-based or functional assay
# [3] = target: myc-tagged full-length palmitoyl acyl transferase zinc-finger DHHC type containing 17 (zD17) (UniProt Q8IUH5); assay: co-immunoprecipitation of zD17 and JNK3 in HEK293 cells with overexpressed PSD-95C3,5S
Substance,fold change of the zD17-JNK3 interaction [1] [fold change],JNK3 phosphorylation (fold change) in HEK293 cells [2] [fold change],fold change of the zD17-JNK3 interaction [3] [fold change]
GFP-PSD95 (postsynaptic density-95) (from UniProt P78352 1-724),0.82,0.64,
"GFP-PSD95 C3,5S (palmitoylation sites mutated) (from UniProt P78352 1-724)",,1.19,1.25
